Test results from patent US6680058B1, “Compositions and methods for contraception in or sterilization of mammals” (Board of Supervisors of Louisiana State University and …, priority 1997, dated 2004).

Biological target: T1, LH receptor on bovine granulosa cells and bovine small luteal cells (bovine), Q28005
T1 chain: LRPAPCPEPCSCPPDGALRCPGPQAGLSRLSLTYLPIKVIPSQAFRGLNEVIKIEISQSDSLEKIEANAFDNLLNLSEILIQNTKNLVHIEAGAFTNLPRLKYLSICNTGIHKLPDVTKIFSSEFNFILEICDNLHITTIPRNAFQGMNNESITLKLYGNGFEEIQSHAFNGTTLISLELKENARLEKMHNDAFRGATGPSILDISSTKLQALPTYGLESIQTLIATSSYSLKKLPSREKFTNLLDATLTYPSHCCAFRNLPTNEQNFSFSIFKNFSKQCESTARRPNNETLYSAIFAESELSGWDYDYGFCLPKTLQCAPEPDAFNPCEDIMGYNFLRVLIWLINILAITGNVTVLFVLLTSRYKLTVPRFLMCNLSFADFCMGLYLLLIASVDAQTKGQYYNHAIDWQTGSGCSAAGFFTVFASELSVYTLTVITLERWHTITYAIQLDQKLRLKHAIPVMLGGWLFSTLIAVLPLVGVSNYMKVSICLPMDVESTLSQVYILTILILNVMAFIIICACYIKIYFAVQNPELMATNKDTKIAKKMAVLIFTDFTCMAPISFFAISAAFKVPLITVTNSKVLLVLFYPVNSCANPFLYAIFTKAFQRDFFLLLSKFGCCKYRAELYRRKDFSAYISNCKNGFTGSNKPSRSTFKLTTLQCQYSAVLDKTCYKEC
Test: cell-based or functional assay

Binder: FALALKALKKALKKLKKALKKALSYAVALSCQCALCRR (modifications not checked) [hecate-bLH conjugate]
- killing of bovine granulosa cells at 1 µM (fold of cells killed by hecate alone): 2
